Inhibition data for 1 molecule are collected here from ChEMBL document CHEMBL5053542, “C-terminal modified Enkephalin-like tetrapeptides with enhanced affinities at the kappa opioid receptor and monoamine transporters” (Bioorg Med Chem, 2021).

Protein sequences, listed by entry. Tags and fused reporters are not part of them.
UniProt P23975, whole entry: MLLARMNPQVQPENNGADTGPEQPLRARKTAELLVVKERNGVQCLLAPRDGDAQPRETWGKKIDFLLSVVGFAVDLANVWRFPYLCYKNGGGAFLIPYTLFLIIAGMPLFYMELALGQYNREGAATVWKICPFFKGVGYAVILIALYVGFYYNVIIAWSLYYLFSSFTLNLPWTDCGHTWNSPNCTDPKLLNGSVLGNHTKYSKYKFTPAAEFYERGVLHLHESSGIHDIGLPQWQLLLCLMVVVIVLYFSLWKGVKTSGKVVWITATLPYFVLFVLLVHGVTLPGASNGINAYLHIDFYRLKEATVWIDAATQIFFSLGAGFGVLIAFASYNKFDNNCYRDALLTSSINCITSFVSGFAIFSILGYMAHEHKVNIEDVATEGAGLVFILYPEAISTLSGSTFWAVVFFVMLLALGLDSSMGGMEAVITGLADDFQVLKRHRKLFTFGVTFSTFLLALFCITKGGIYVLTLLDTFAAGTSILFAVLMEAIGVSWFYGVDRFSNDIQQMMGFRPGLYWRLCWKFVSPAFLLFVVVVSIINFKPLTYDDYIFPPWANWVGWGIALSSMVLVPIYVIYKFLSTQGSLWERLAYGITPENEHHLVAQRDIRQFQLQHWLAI

The experiment addresses Sodium-dependent noradrenaline transporter (Homo sapiens) (UniProt P23975). As to the kind of experiment: Displacement of [3H]-Nisoxetine from human NET expressed in HEK cell membrane at 10 uM by radioligand binding assay relative to control. (Loss of bound radioactivity is the signal in a displacement assay; it reports binding, not function.)

Where only a bound is given, the exact number is not on record here.

What is called inhibition is how much of the control response was suppressed.

Turning to `CCC(=O)N(c1ccc(Cl)c(Cl)c1)C1CCN(C(=O)[C@H](Cc2ccc(Cl)cc2)NC(=O)CNC(=O)[C@H]2Cc3ccccc3CN2C(=O)[C@@H](N)Cc2cc(C)c(O)c(C)c2)CC1`, the inhibition is < 50%.
